ChEMBL document CHEMBL1806354, “Identification of N-propylnoraporphin-11-yl 5-(1,2-dithiolan-3-yl)pentanoate as a new anti-Parkinson's agent possessing a dopamine D2 and serotonin 5-HT1A dual-agonist profile” (J Med Chem, 2011)

Chains of the proteins cited; added tags and fusions are not shown.
UniProt P14416, whole entry: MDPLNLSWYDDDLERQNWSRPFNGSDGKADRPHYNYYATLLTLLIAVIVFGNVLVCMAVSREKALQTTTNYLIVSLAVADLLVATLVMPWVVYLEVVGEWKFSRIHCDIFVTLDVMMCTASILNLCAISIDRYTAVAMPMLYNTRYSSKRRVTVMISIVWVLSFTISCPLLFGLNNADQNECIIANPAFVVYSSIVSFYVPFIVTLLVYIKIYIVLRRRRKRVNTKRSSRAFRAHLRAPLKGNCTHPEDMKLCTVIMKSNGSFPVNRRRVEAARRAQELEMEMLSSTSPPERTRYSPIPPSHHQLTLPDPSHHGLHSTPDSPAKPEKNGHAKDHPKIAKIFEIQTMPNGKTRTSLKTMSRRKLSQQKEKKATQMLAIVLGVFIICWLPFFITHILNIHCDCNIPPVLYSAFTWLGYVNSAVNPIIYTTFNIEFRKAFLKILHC

Target: D(2) dopamine receptor (Homo sapiens, UniProt P14416)
Experiment: Displacement of [3H]spiperone from dopamine D2 receptor expressed in HEK293 cells after 50 mins by beta liquid scintillation counter
Format: cell-based

**Q.** `CCCN1CCc2cccc3c2C1Cc1cccc(O)c1-3` (racemic) was tested. Which Ki did it give?
**A.** 854 nM
